Measurements reported in PubChem BioAssay (NCI).
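Briefly, cells in 96-well plates were exposed to five compound concentrations for 48 h, and endpoints were estimated by linear interpolation. At the GI50, growth is halved. TGI is the concentration that stops growth completely.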

System: MDA-MB-468 breast
Assay: NCI tumour cell line growth inhibition, 48 h

For `Cc1ccc(Sc2ccc([N+](=O)[O-])cc2[N+](=O)[O-])c([N+](=O)[O-])c1`, the GI50 was 0.343 µM and the TGI was 10.6 µM.
